GIV Gai3 FP – blocks GIV peptide binding to rat Galpha-i3. P08753. Galpha-i3/FITC-GIV peptide fluorescence polarization, 90 min; hits give low values; scaled: aluminum fluoride 0%, vehicle 100%. percent of control (FP), % (concentration not given with the values). actives 0.42% (n = 210,000). AID 1224905;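 active = replicate mean at 85% of control or lower, very high polarization wells dropped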;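 also: wells of about 15 µL received 100 nL stock; the first replicate is given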
HCMV NEC inh – disrupts HCMV UL50-UL53 complex binding; HTRF UL50-UL53 interaction, normalized percent inhibition; inhibition, % (concentration not given with the values); actives 0.15% (n = 190,000); AID 1918969; in the data active means inhibition above about 27%, passing the limit was not always enough
GIV Gai FP conf – GIV-Galpha-i3 inhibition, FP confirmation; shares compounds with GIV Gai3 FP; FITC-GIV peptide binding to Galphai3, fluorescence polarization; hits give low values; fluorescence polarization, mP at 100 µM; actives 38% (n = 580); AID 1259350;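 active means inhibition score of 15 or more, meaning 100 minus mean polarization as percent of control over three replicates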;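 further: lower mP means peptide displaced from Galphai3 so more inhibition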
GIV-Gai AS conf – confirmation of inhibitors of GIV binding to human Galpha-i3 | shares compounds with GIV Gai3 FP | AlphaScreen counts at 100 µM | AID 1259351 | AlphaScreen Galphai3-GIV binding, purified proteins, 90 min; hits give low values | actives 39% (n = 580);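 active means inhibition score at or above a set limit, where the score is 100 minus the three-replicate mean percent of control signal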
Of the large screens only hits and unclear results are named; the others gave an inactive call (follow-up assays come after a bar, where they were run). In the library only some 0.43% were active in any assay of this set; here they are far more common.

CCCn1nnc(NCc2ccc(-c3cc(Cl)ccc3Cl)o2)n1	none
CC(C)n1cnc2nc(COc3ccccc3NC(=O)Nc3cccc(Cl)c3)cc(=O)n21	none
OCC1O[C@H](O)C(Cl)C(O)C1O (some centres not stated)	none
OCC1O[C@H]([S-])[C@@H](O)C(O)[C@@H]1O.[Au+] (some centres not stated)	GIV Gai3 FP 65 | GIV Gai FP conf 57 | GIV-Gai AS conf 6583
CC(C)(C)C(=O)C1C2C3COC(O3)C(=O)C2C2C=Cc3ccccc3N21 (configuration not stated)	none
CC(=O)[C@@H]1[C@H]2C3COC(O3)C(=O)[C@@H]2[C@H]2C=Cc3ccccc3N21 (some centres not stated)	GIV Gai3 FP 80 (no result: HCMV NEC inh) | GIV Gai FP conf 51 | GIV-Gai AS conf 7239
O=C1c2cc3ccccc3cc2C(=O)C1c1ccccc1	none
N#CC1=C(SCc2ccccc2)SC(c2ccc(C(=O)O)cc2)NC1=O (configuration not stated)	GIV Gai3 FP 74 (no result: HCMV NEC inh) | GIV Gai FP conf inactive | GIV-Gai AS conf 28170
N#CC1=C(SCc2ccccc2)SC(CO)NC1=O (configuration not stated)	none
Cc1ccc2c(c1)c1c3c(nccn32)CCC1	GIV Gai3 FP 76 | GIV Gai FP conf 61 | GIV-Gai AS conf inactive
Cc1ccc2c(c1)c1c(n2C)C(C#N)CCC1 (configuration not stated)	none
CC(C)(C)C(=O)NC1CCN(C(=O)C2CC2)C1 (configuration not stated)	none (no result: HCMV NEC inh)
CN1c2ccccc2C(C)(C)C12C=Cc1ccccc1O2 (configuration not stated)	none (no result: HCMV NEC inh)
C=CCNC(=S)N/N=C1\CC2CC=CC12 (configuration not stated)	none (no result: GIV Gai3 FP)
CC1(C)CCC2=C(O1)c1ccccc1C(=O)C2=O	GIV Gai3 FP 54 | GIV Gai FP conf 54 | GIV-Gai AS conf inactive
CC1=C(C)C(=O)c2ccccc2C1=O	none
COC(=O)Cc1cc(OC(C)=O)n(-c2ccc(F)cc2)n1	none (no result: GIV Gai3 FP)
CC(NC(=O)c1ccccc1)c1nc(-c2ccc3c(c2)nnn3C2CCCC2)no1 (configuration not stated)	none (no result: HCMV NEC inh)
Cc1cc2nc3c(=O)n(C)c(=O)n(C)c3nc2cc1N	none (no result: HCMV NEC inh)
Cn1c(=O)c2nc3ccc(NC(=O)C(F)(F)F)cc3nc2n(C)c1=O	GIV Gai3 FP 79 | GIV Gai FP conf inactive | GIV-Gai AS conf inactive
CCOC(=O)C1=C(C)N=c2s/c(=C\c3ccc(O)c(Br)c3)c(=O)n2C1c1ccccc1 (configuration not stated)	none
COC(=O)c1[nH]c(C)c(C(=O)OC)c1C	none (no result: GIV Gai3 FP)
COC(=O)c1[nH]c(C(=O)OC)c(O)c1O	GIV Gai3 FP 59 | GIV Gai FP conf inactive | GIV-Gai AS conf inactive
CNC(=O)c1csc(N2CCCC(C)C2)n1 (configuration not stated)	none (no result: HCMV NEC inh)
O=C1C(=O)c2ccccc2C(O)=C1c1ccccc1F	none
O=C1C(c2ccnc3ccccc23)=C(O)c2ccccc21	GIV Gai3 FP 64 | GIV Gai FP conf inactive | GIV-Gai AS conf inactive
CCc1nc(-c2cc(S(=O)(=O)N3CCN(c4ccccn4)CC3)c(C)s2)no1	none
COc1ccccc1N1CCN(C(=O)c2sc3nc(C)nc(N4CCOCC4)c3c2C)CC1	none (no result: HCMV NEC inh)
CC(C)N(Cc1ccccc1)C(=O)c1cc(-c2ccccc2)n[nH]1	none
COc1cc(-c2nc(C=Nc3ccc4ccccc4c3)c(O)o2)cc(OC)c1OC	none (no result: HCMV NEC inh)
COC(=O)c1ccc(N=Cc2nc(-c3cc(OC)c(OC)c(OC)c3)oc2O)cc1	none (no result: HCMV NEC inh) | GIV Gai FP conf inactive | GIV-Gai AS conf inactive
CC(C)(C)c1ccc2[nH]c3c(cc(NC4CCCCC4)c4c(=O)c5ccccc5c(=O)c43)oc2c1	none
Cc1cccc(NC(=O)NC(C)c2c(-n3cccc3)sc(C)c2C)c1C (configuration not stated)	none (no result: HCMV NEC inh) | GIV Gai FP conf inactive | GIV-Gai AS conf inactive
Cc1ccc(NC(=O)NC(C)c2c(-n3cccc3)sc(C)c2C)cc1F (configuration not stated)	none
COc1c(Cl)cc(Cl)cc1/C=C(\C#N)c1nc2ccccc2[nH]1	GIV Gai3 FP 46 (no result: HCMV NEC inh) | GIV Gai FP conf inactive | GIV-Gai AS conf inactive
COc1cc(/C=C(\C#N)c2nc3ccc(C)cc3[nH]2)ccc1OCc1ccc(C)cc1	none
CCC(=O)Oc1ccc(/C=C(\C#N)c2nc3ccccc3[nH]2)cc1OC	none | GIV Gai FP conf inactive | GIV-Gai AS conf inactive
COc1cccc(/C=C(\C#N)c2nc3ccc(C)cc3[nH]2)c1	GIV Gai3 FP 70 | GIV Gai FP conf inactive | GIV-Gai AS conf inactive
COc1cc(/C=C(\C#N)c2nc3ccccc3[nH]2)ccc1OCc1ccccc1F	none
N#C/C(=C/c1ccc(Cl)cc1Cl)c1nc2ccccc2c(=O)[nH]1	none
Cc1nn(-c2ccccc2)c2c1C(C(=O)NC1CCCC1)N(c1ccc(C(C)C)cc1)C(=O)CS2 (configuration not stated)	none
O=c1[nH]c2ccc(NCc3ccccn3)cc2[nH]1	none
Cn1c(N)nc(O)c1/C=C1/C=Nc2ccccc21	none
CCc1ccc(S(=O)(=O)/N=C2/C=C(Nc3ccccc3)C(=O)c3ccccc32)cc1	none (no result: HCMV NEC inh)
CCc1ccc(S(=O)(=O)/N=C2\C=CC(=O)c3ccccc32)cc1	GIV Gai3 FP 5.6 (no result: HCMV NEC inh) | GIV Gai FP conf 12 | GIV-Gai AS conf 1607
CCN1/C(=C\C=C\c2n(CC)c3cc(Cl)c(Cl)cc3[n+]2CCCS(=O)(=O)[O-])N(CCCS(=O)(=O)O)c2cc(Cl)c(Cl)cc21	GIV Gai3 FP 79 (no result: HCMV NEC inh) | GIV Gai FP conf inactive | GIV-Gai AS conf 10331
COc1cc2c(cc1OC)CN(C(=O)c1ccc(N3C(=O)CCS3(=O)=O)cc1Cl)CC2	none
COc1ccc(C(=O)CSc2nnc(-c3ccco3)c(-c3ccco3)n2)cc1	none (no result: HCMV NEC inh)
O=C(CSc1nnc(-c2ccco2)c(-c2ccco2)n1)Nc1ccc(C(=O)O)cc1	GIV Gai3 FP 77 | GIV Gai FP conf 60 | GIV-Gai AS conf 2995
COc1ccccc1/C=C1\C(=O)N(c2ccc(C)cc2)C2=C1C(c1ccccc1)N(c1ccc(C)cc1)C2=O (configuration not stated)	none (no result: HCMV NEC inh)
Cc1ccc(N2C(=O)/C(=C\c3ccc(C(C)C)cc3)C3=C2C(=O)N(c2ccc(C)cc2)C3c2ccccc2)cc1 (configuration not stated)	GIV Gai3 FP 85 (no result: HCMV NEC inh) | GIV Gai FP conf inactive | GIV-Gai AS conf inactive
CCOc1cc(-n2cnnn2)c(OCC)cc1NC(=O)c1cn(-c2ccc(F)cc2)nn1	none
COc1cccc(=O)c2c(C)oc(C)c12	GIV Gai3 FP 25 | GIV Gai FP conf 37 | GIV-Gai AS conf 7201
CCOc1cc(/C=C/c2ccccc2OC)cc(=O)c2c(C)oc(C)c12	none (no result: HCMV NEC inh)
CN1C(=O)c2ccccc2N(C)C1c1ccc(F)cc1 (configuration not stated)	none
CN1c2ccccc2N(C)C1c1ccc(O)cc1	GIV Gai3 FP 16, HCMV NEC inh 68 | GIV Gai FP conf 31 | GIV-Gai AS conf 16384
COc1ccc(-n2nnc(-c3nc(-c4ccccc4OC)cs3)c2N)cc1	none
COc1ccc(N2C(=O)/C(=C/c3ccc(Cl)cc3)C=C2c2ccccc2)cc1	GIV Gai3 FP 82 (no result: HCMV NEC inh) | GIV Gai FP conf inactive | GIV-Gai AS conf inactive

Screens as filed in PubChem.
